This test in a line: H2O2 production by UV irradiation of antibody/protein samples (Amplex Red assay). The test is classed as biochemical. Conditions: member of the immunoglobulin superfamily. As to the method: Aliquots (10 μL) were removed at timed intervals throughout the assay. H2O2 concentration was determined by the amplex red method. Each data point is reported as the mean±SEM of at least duplicate measurements: • polyclonal (poly) immunoglobulin (Ig) G, human; O poly-IgG, horse; □ poly-IgG, sheep; ∇ monoclonal (m) IgG (WD1-6G6), murine; Δ poly-IgM, human; ⋄ mIgG (92H2), murine; ▪ β-galactosidase (β-gal); ▴ chick ovalbumin (OVA); ▾ α-lactalbumin (α-lact); ♦ bovine serum albumin (BSA).
An aliquot (20 μl) from the protein solution was removed and added into a well of a 96-well microtiter plate (Costar) containing reaction buffer (80 μl). Working solution (100 μl/400 μM Amplex Red reagent 1/2 units/ml horseradish peroxidase) was then added, and the plate was incubated in the dark for 30 min. The fluorescence of the well components was then measured using a CytoFluor Multiwell Plate Reader (Series 4000, PerSeptive Biosystems, Framingham, Mass.; Ex/Em: 530/580 nm). The hydrogen peroxide concentration was determined using a standard curve. All experiments were run in duplicate, and the rate is quoted as the mean of at least two measurements.
The resultant solution was transferred to a glass, screw-cap vial and irradiated with UV light for 30 min. The concentration of H2O2 was determined after 30 min.

Experimental findings from US20070009537A1, “Antimicrobial activity of antibodies producing reactive oxygen species” (priority 2002, published 2007) are described below.

Take “β2-microglobulin: member of the immunoglobulin superfamily”: the “generation of H2O2” value was “does not generate H2O2”. Also, the “generation of H2O2” value (listed as β2-macroglobulin) was “does not generate hydrogen peroxide”.
